Test results as given in patent US20190015518A1, “DRUG DELIVERY COMPOSITIONS AND METHODS” (priority 2016, published 2019).

How the values were obtained:
[1] = Hematology of a healthy dog given 1.5 mg/kg on day 1 and 2.0 mg/kg on day 70, sub-mucosa; assay type: in vivo
Method: (§1) Before each dose, the dog was examined by clinical chemistry, hematology, and urinalysis. Additional examinations of clinical chemistry and hematology were performed on days 7, 14, and 42 after the first dose. Additional tests of urinalysis were performed on days 7 and 14 after the first dose. The potential drug-induced toxicities were monitored for 56 days after the second dose. Specifically, clinical chemistry and urinalysis were performed on days 7, 14, 21, and 56, and hematology was performed on days 7, 14, and 56 after the second dose to evaluate the tolerability and toxicity of the formulation.
Hematology examinations were performed at pre- and post-dose for both injections. The injections were given via the sub-mucosa in the mouth.

[2] = Pharmacokinetics in three tumor-bearing dogs (three-compartmental model); assay type: in vivo; settings: Dog 3 (6.5 kg), 10 mg/m2
Method: An open label, multiple dose/dosage phase I/II trial of 75HA-Lys-Pt was conducted at the University of Missouri Veterinary Medical Teaching Hospital (MU-VMTH). The clinical trial protocol was approved by the University of Missouri ACUC. Dogs of any age, sex, or breed presented to the MU-VMTH oncology service with the a histological diagnosis of anal sac carcinoma, oral squamous cell carcinoma, oral melanoma, nasal carcinoma, or digital squamous cell carcinoma with a performance score of 0 or 1 (0: normal activity; 1: restricted activity; 2: compromised activity; 3: disabled; 4: dead) and without comorbid conditions that would limit life expectancy to less than nine weeks were offered enrollment in the trial.
Following complete staging, client consent was obtained to enroll each dog in the study. Once enrolled in the study, longest tumor diameters of all target lesions were recorded. An indwelling jugular catheter was placed to facilitate collection of blood samples. Dogs received 10 to 30 mg/m^2 intra-tumoral injections through 1 to 3 pre-placed 22-ga spinal needles once every three weeks for up to four planned doses. […]
Serum samples of 3 dogs were diluted 20-fold in 1% HNO3, and vortexed prior to inductively coupled plasma mass spectrometry (ICP-MS) analysis. The platinum concentration of serum was determined using an Agilent 7500i ICP-MS. […]

[3] = Rehydration time of lyophilized HA-Lys-Pt; assay type: physicochemical
Method: 33HA-Lys-Pt (MW of HA: 33 kDa) from batch 33_01015 was used to evaluate the impact of trehalose as an excipient and lyoprotectant. […] The solution was freeze-dried using the following program. Samples were frozen in a −80° C. freezer for 4 hours. The vials were transferred to a freeze dryer and kept at −40° C. for 1.5 hours. The condenser point was set at −70° C. The vacuum setpoint was 100 mTorr. The parameters for primary drying were 30 hours at −35° C. and 10 mTorr. The parameters for secondary drying were 5 hours at 2° C. and 10 mTorr, followed by another 5 hours at 8° C. and 10 mTorr. Once the drying was complete, vials containing lyophilized 33HA-Lys-Pt samples were stored at −20° C. in the dark until rehydration test within 24 hours. During rehydration, 500-μL of water was added to the vial and the sample was gently shaken. The small molecular weight platinum species such as mono-aquated and di-aquated platinum were separated from the reconstituted 33HA-Lys-Pt using a Centricon centrifugal filter unit (10,000 MWCO, 4000 rpm for 10 min at 4° C.) and analyzed by an HPLC assay. The mobile phase was sodium phosphate solution (10-mM, pH 3.0) at a flow rate of 0.25 mL/min on an Alltech® 250 mm×4.6 mm M/M RP8/cation column thermostated at 25° C.
75HA-Lys-Pt (MW of HA: 75 kDa) from batch 75_1205 was used to evaluate the impact of trehalose as an excipient and lyoprotectant. […] The solution was freeze-dried using the following program. Samples were frozen in a −80° C. freezer for 4 hours. The vials were transferred to a freeze dryer and kept at −40° C. for 1.5 hours. The condenser point was set at −70° C. The vacuum setpoint was 100 mTorr. The parameters for primary drying were 30 hours at −35° C. and 10 mTorr. The parameters for secondary drying were 5 hours at 2° C. and 10 mTorr, followed by another 5 hours at 8° C. and 10 mTorr. Once the drying was complete, vials containing lyophilized 75HA-Lys-Pt samples were stored at −20° C. in the dark until rehydration test within 24 hours. During rehydration, 500-μL of water was added to the vial and the sample was gently shaken.
One milliliter of samples were used for all tests. The trehalose percent weights varied from 8-20% wt. The pHs included 4.5, 5, 6, and 7. The solution was freeze-dried using the aforementioned freeze-drying program. Once the drying was complete, vials containing lyophilized 75HA-Lys-Pt samples were stored at −20° C. in the dark until rehydration test within 24 hours. During rehydration, 1-mL of water was added to the vial and the sample was gently shaken. Diaquated platinum species were separated using the aforementioned Centricon units and analyzed using the aforementioned HPLC method.
Other sample freezing methods were also tested. […]

[4] = Clinical chemistry of a healthy dog given 1.5 mg/kg on day 1 and 2.0 mg/kg on day 70, sub-mucosa; assay type: in vivo
Method: as §1
Clinical chemistry examinations were performed at pre- and post-dose for both injections. The injections were given via the sub-mucosa in the mouth.

[5] = Pharmacokinetics in a healthy dog, oral sub-mucosa injection (SAAM II model); assay type: in vivo; settings: 2nd dose 2.0 mg/kg
Method: Pharmacokinetics of HA-Lys-Pt were determined in a healthy dog by Xenometrics LLC (Stillwell, Kans.). […] After each injection, 2-mL serum samples were collected at 0, 0.25, 1, 2, 6, 24, 48, 96, and 168 hours. Cumulative urine samples were collected at 0-6, 6-24, 24-48, 48-72, 72-96, 96-120, 120-144, and 144-168 hours. The samples were frozen at −80° C. until ICP-MS analysis. Prior to analysis, serum and urine samples were diluted 250 and 500-fold using 1% HNO3, respectively. The platinum calibration curve contained 4 replicates of 6 concentrations (0, 1, 10, 20, 40, and 50 ppb). The internal standard was bismuth at 50 ppb.
The pharmacokinetics of the HA-Lys-Pt was measured using the serum and urine samples. The data was modeled using SAAM II software with a four compartmental model.
As indicated by the model, q1, q2, q3, and q4 represent the central blood compartment, the body/tissue compartment, the injection site, and the urine compartment, respectively. The syringe represents the dose that was given to the injection site compartment. The two red circles indicate the two sampling sources, the serum from the q1 (s1), and the urine from the q4 (s2). […] The calculated PK parameters including AUC, clearance, volume of distribution at steady state (Vss), elimination half-lives (te), and transfer rate constants, are listed in Table 3.

[6] = system: MDA-1986 head and neck tumors; assay: Anticancer efficacy, orthotopic xenograft model of human HNSCC; assay type: in vivo, mouse; settings: 20 mg/kg s.c., three weekly injections
Method: The MDA-1986 cells were prepared in PBS at a concentration of 2×10^7 cells/mL. Female NU/NU mice were anesthetized under 2% isoflurane in O2, and 50 μL of cell solution was injected into the oral sub-mucosa of the mice using a 27-ga needle. All procedures in the animal study were approved by the Institutional Animal Care and Use Committee of the University of Kansas. Tumor growth was monitored twice weekly by measurement with a digital caliper, and the tumor volume was calculated as 0.52×(width)^2×(length). […] The drugs were given weekly for 3 consecutive weeks.

Question: For “HA-cis-[Pt(NH3)2(N^α-Acetyl-L-Lysine)] [75HA-Lys-Pt]”, which “Differential white blood cell count, % MONO” value ([1]; 2 mg/kg, 56 days after) is on record?
Answer: 4.5%

Question: And the “Differential white blood cell count, % MONO” value ([1]; […], 7 days after)?
Answer: 3.8%

Question: What about the “Differential white blood cell count, % MONO” value ([1]; […], 14 days) of the same substance?
Answer: 3.8%

Question: What about the Reticulocyte count ([1]; […], 42 days) of the same substance?
Answer: 0.91%

Question: What about the te [2] of the same substance?
Answer: 11.1 h

Question: What about the “Rehydration Time” value ([3]; 2.32 mg/mL, pH 5, trehalose 15% wt) of the same substance?
Answer: 24 h

Question: What about the “Rehydration Time” value ([3]; 2.32 mg/mL, pH 5, trehalose 20% wt) of the same substance?
Answer: 24 h

Question: What about the “Rehydration Time” value ([3]; batch 75_0706, 2.13 mg/mL, pH 5, trehalose 15% wt, Liquid nitrogen) of the same substance?
Answer: >24 h

Question: And the “Rehydration Time” value ([3]; batch 75_0706, 2.13 mg/mL, pH 5, trehalose 20% wt, Liquid nitrogen)?
Answer: >24 h

Question: What about the “ALT, fold of the pre-dose value” ([4]; 2 mg/kg, 14-days post-dose) of the same substance?
Answer: 2.8 fold

Question: And the “AST, fold of the pre-dose value” ([4]; 2 mg/kg, 14-days post-dose)?
Answer: 2.7 fold

Question: What about the “A/G Ratio” value ([4]; 2 mg/kg, 7 days after) of the same substance?
Answer: 0.86

Question: What about the Cl ([4]; 2 mg/kg, 7 days after) of the same substance?
Answer: 115 mmol/L

Question: What about the K ([4]; 2 mg/kg, 7 days after) of the same substance?
Answer: 3.8 mmol/L

Question: What about the Na ([4]; 2 mg/kg, 7 days after) of the same substance?
Answer: 148 mmol/L

Question: What about the “A/G Ratio” value ([4]; 2 mg/kg, 14 days after) of the same substance?
Answer: 0.77

Question: And the Aspartate aminotransferase ([4]; 2 mg/kg, 14 days after)?
Answer: 119 U/L

Question: And the Cl ([4]; 2 mg/kg, 14 days after)?
Answer: 122 mmol/L

Question: What about the Globulin ([4]; 2 mg/kg, 14 days after) of the same substance?
Answer: 3.1 g/dL

Question: What about the K ([4]; 2 mg/kg, 14 days after) of the same substance?
Answer: 4.5 mmol/L

Question: What about the Na ([4]; 2 mg/kg, 14 days after) of the same substance?
Answer: 152 mmol/L

Question: What about the “A/G Ratio” value ([4]; 2 mg/kg, 21 days after) of the same substance?
Answer: 0.87

Question: What about the Cl ([4]; 2 mg/kg, 21 days after) of the same substance?
Answer: 113 mmol/L

Question: And the Creatine kinase ([4]; 2 mg/kg, 21 days after)?
Answer: 113 U/L

Question: And the Globulin ([4]; 2 mg/kg, 21 days after)?
Answer: 3.1 g/dL

Question: And the K ([4]; 2 mg/kg, 21 days after)?
Answer: 4.4 mmol/L

Question: What about the Na ([4]; 2 mg/kg, 21 days after) of the same substance?
Answer: 147 mmol/L

Question: And the “A/G Ratio” value ([4]; 2 mg/kg, 56 days after)?
Answer: 0.91

Question: What about the Cl ([4]; 2 mg/kg, 56 days after) of the same substance?
Answer: 119 mmol/L

Question: And the K ([4]; 2 mg/kg, 56 days after)?
Answer: 4.0 mmol/L

Question: What about the Na ([4]; 2 mg/kg, 56 days after) of the same substance?
Answer: 150 mmol/L

Question: What about the “A/G Ratio” value ([4]; […], 7 days after) of the same substance?
Answer: 0.92

Question: What about the Cl ([4]; […], 7 days after) of the same substance?
Answer: 112 mmol/L

Question: What about the K ([4]; […], 7 days after) of the same substance?
Answer: 4.0 mmol/L

Question: And the Na ([4]; […], 7 days after)?
Answer: 148 mmol/L

Question: What about the “A/G Ratio” value ([4]; […], 14 days) of the same substance?
Answer: 0.86

Question: What about the Cl ([4]; […], 14 days) of the same substance?
Answer: 119 mmol/L

Question: And the K ([4]; […], 14 days)?
Answer: 5.0 mmol/L

Question: And the Na ([4]; […], 14 days)?
Answer: 149 mmol/L

Question: And the “A/G Ratio” value ([4]; […], 42 days)?
Answer: 1.2

Question: And the “te (β)” value [5]?
Answer: 3.1 h

Question: What about the “survival rate relative to the control and cisplatin treated groups” value [6] of the same substance?
Answer: significantly extended
